# Key:
# [1] = tested on: resistant bacteria which produce 3'-phosphotransferases; settings: known deoxykanamycin B derivatives; cited from earlier work
# in vivo = settings: mouse, iv
compound,measurement,setting,value
"NCC1CCC(N)C(OC2C(N)CC(N)C(OC3OC(CO)C(O)C(N)C3O)C2O)O1 (centres unmarked) [DKB, 3',4'-dideoxykanamycin B, reference compound]",activity against resistant bacteria producing aminoglycoside 3'-phosphotransferases,[1],active
same,LD50,in vivo,109 mg/kg
